# Data as given in PubChem BioAssay AID2472 (National Center for Advancing Translational Sciences (NCATS), 2010).
# The entries are a selection whose mix differs from that of the whole data set. Some of these compounds have results that are not shown, active ones among them. Active and inactive are the calls of the source. Cut-off read from the data, not from the text of the source: active = activity change below about -30%; inactive = the rest, inconclusive results apart.
# Experiment: qHTS Assay for Inhibitors of Fructose-1,6-bisphosphate Aldolase from Giardia Lamblia: Coupling assay counterscreen
# Conditions: coupling enzyme system counterscreen, AmpLite Red fluorescence; at 58.2 µM (top of the series)
# From the text: MLPCN Grant: MH085699-01 Assay Provider: Osnat Herzberg, University of Maryland NCGC Assay Overview: The objective of this project is to obtain compounds that inhibit Giardia lamblia growth. G. lamblia is a human pathogen which afflicts impoverished nations; it is the most common cause of outbreaks of diarrhea in the United States. During the course of our study of potential drug targets in Giardia, we have identified the Class II (Zn2+ functions in electrophilic catalysis) fructose-1,6-bisphosphate aldolase (FBPA) as an excellent candidate for drug targeting. FBPA is a key glycolytic pathway enzyme, essential for G. lamblia survival. The human FBPA belongs to the Class I aldolases, which have a different substrate binding site structure and a radically different catalytic mechanism (employing a lysine-Schiff base intermediate). Therefore, affinity-based or mechanism-based inhibitors of the Giardia FBPA are expected not to interfere with the catalytic function of the human FBPA. A glyceraldehyde-3-phosphate dehydrogenase/triose phosphate isomerase/NAD/arsenate coupled assay was adapted to the 1536-well HTP format for use in the primary screen. This was done by coupling it to a diaphorase/resazurin/resorufin reaction that can be monitored by fluorescence (excitation, 544 nm; emission, 590 nm). Compounds identified in this screen will be further evaluated by coupling the […]/triose phosphate isomerase/NADH assay to a phenazine methosulfate/tetranitroblue tetrazolium color reaction. False positives due to the dehydrogenases and diaphorase inhibition will be eliminated, and selectivity assay will triage inhibitors of mammalian triose phosphate isomerase and the Class I FBPA. G. lamblia FBPA inhibitors identified by the in vitro analyses will be examined for growth inhibition of Giardia trophozoites, and for cytotoxicity in human cells. This assay specifically addresses whether activity observed in the primary screen (AID 2451) is related to inhibition of the coupling assay used, as opposed to inhibition of aldolase. Actives in this assay are considered inconclusive for activity against aldolase.
# NCGC Assay Protocol: Step,Parameter,Value,Description 1,Coupling enzyme reagent,2 uL,glyceraldehyde-3-phosphate 2,Compound,23 nL,3.68 nM-57.5 uM final concentration 3,Time,10 min,RT Incubation 4,Substrate/detection Reagent,2 uL,Substrate + enzyme coupling system + AmpLite Red kit 5,Time,20 min,RT Incubation 6,Detector,525 nm/598 nm (Fluorescence),ViewLux Fluorescence Read (Read 1) Notes: 1,Medium-binding black solid-bottom Kalypsys plates. FRD or Kalypsys dispenser. 2,Compound Library (10 mM ,1:5 dilution). Pin-transferred for a [final] range of 3.68 nM-57.5 uM. 3,RT incubation 4,FRD or Kalypsys dispenser, 2 uL of reaction mixture. Bottle kept at 4C and covered in foil to protect from light. 5,RT incubation 6,ViewLux Protocol 1194; Excitation filter wheel A (525/20 Pol; BODIPY TMR FP), Emission filter wheel B (598/25 S; BODIPY TMR FP S). Keywords: Fructose-bisphosphate aldolase, FBPA , Giardia lamblia , Giardia, HTS, Inhibitors
# % is set by controls: 0 for no effect and ±100 for the full control effect.
row,SMILES,"activity change, negative = inhibition"
1,CN1[C@@H]2CC[C@H]1CC(OC(=O)C(O)(c1ccccc1)c1ccccc1)C2 (some centres undefined),inactive: 2.08%
2,O=C(NCC1(N2CCCCC2)CCCCC1)c1cc([N+](=O)[O-])ccc1Cl,inactive: -0.979%
3,Cc1ccc(C(=O)NCC2(N3CCCCC3)CCCCC2)cc1,inactive: 0.931%
4,CC(C)N1C(=O)CC2(CCN(CCOC(=O)C(O)(c3ccccc3)c3ccccc3)CC2)C1=O,inactive: 1.3%
5,COc1cc(SC)ccc1C(=O)NCC1(N(C)C)CCCCC1,inactive: 1.64%
6,CCN(CC)CC(C)C(C)OC(=O)C(O)(c1ccccc1)c1ccccc1 (centres undefined),inactive: -0.306%
7,CN(C)c1ccc(C(=O)NCC2(N(C)C)CCCCC2)cc1,inactive: 0.29%
8,CN(C)C1CCCC1OC(=O)C(O)(c1ccccc1)c1ccccc1 (centres undefined),inactive: 1.73%
9,Cc1ccccc1C(=O)NCC1(N2CCCCC2)CCCCC1,inactive: 0.24%
10,O=C(NCC1(N2CCCCC2)CCCCC1)c1cccc(Br)c1,inactive: 3.82%
11,CCN1CCCC(OC(=O)C2(O)c3ccccc3C=Cc3ccccc32)C1 (centres undefined),inactive: -1.44%
12,Cc1cc(C(=O)NCC2(N3CCCCC3)CCCCC2)ccc1[N+](=O)[O-],inactive: 2.21%
13,COc1ccc(C(=O)NCC2(N(C)C)CCCCC2)cc1,inactive: 9.86%
14,O=C(NCC1(N2CCCCC2)CCCCC1)c1cc(F)c(F)cc1Cl,inactive: 6.28%
15,C=CCN1CCN(CCOC(=O)C(O)(c2ccccc2)c2ccccc2)CC1,inactive: 3.08%
16,COc1cc(C(=O)NCC2(N(C)C)CCCCC2)c([N+](=O)[O-])cc1OC,inactive: 0.137%
17,CN(C)C1(CNC(=O)c2ccc(Br)cc2)CCCCC1,inactive: 3.18%
18,O=C(NCC1(N2CCCCC2)CCCCC1)c1cccc(Cl)c1,inactive: -0.427%
19,COc1ccc(Cl)cc1C(=O)NCC1(N(C)C)CCCCC1,inactive: 0.258%
20,COc1cccc(C(=O)NCC2(N3CCCCC3)CCCCC2)c1,inactive: 0.613%
21,O=C(OC1CN2CCC1CC2)C(CO)(c1ccccc1)c1ccccc1 (centres undefined),inactive: 4.72%
22,CN(C)c1cccc(C(=O)NCC2(N(C)C)CCCCC2)c1,inactive: -0.387%
23,CC(C)Oc1ccc(C(=O)NCC2(N(C)C)CCCCC2)cc1,inactive: 0.132%
24,COc1ccc(Br)c(C(=O)NCC2(N3CCCCC3)CCCCC2)c1,inactive: -0.891%
